Consider one substance from article PMC10418364.

This test addresses acetylated α-tubulin (human (endogenous in post-mortem human brain)) (UniProt Q71U36). Put plainly: proximity ligation; in situ Duolink PLA on paraffin sections of the substantia nigra of post-mortem human brain; anti-acetylated α-tubulin mouse antibody and anti-α-synuclein rabbit antibody, repeated with anti-acetylated α-tubulin rabbit antibody and anti-α-synuclein mouse antibody (LB509).

In the case of “α-synuclein (from UniProt P37840 1-140) (natural protein)”, the PLA signal normalized on acetylated α-tubulin turned out to be 0.081.
